These results are taken from publication PMC8954831, “Design, Synthesis, Molecular Docking, and Biological Evaluation of Pyrazole Hybrid Chalcone Conjugates as Potential Anticancer Agents and Tubulin Polymerization Inhibitors” (Pharmaceuticals, 2022).

Amino acid sequences for entries named in this document (tags omitted).
UniProt P02550, whole entry: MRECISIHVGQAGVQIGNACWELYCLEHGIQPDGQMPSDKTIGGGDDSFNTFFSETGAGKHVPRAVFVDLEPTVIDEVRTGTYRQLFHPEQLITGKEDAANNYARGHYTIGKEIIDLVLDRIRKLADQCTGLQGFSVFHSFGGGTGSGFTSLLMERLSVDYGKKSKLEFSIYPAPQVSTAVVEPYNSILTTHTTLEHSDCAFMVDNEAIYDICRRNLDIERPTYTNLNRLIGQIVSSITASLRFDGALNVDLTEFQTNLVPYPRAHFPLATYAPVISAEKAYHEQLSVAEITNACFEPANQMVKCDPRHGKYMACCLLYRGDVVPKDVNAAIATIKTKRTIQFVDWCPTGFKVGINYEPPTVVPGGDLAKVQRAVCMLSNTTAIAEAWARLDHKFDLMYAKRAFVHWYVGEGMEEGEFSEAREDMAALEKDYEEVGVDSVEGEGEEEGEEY
UniProt P02554, whole entry: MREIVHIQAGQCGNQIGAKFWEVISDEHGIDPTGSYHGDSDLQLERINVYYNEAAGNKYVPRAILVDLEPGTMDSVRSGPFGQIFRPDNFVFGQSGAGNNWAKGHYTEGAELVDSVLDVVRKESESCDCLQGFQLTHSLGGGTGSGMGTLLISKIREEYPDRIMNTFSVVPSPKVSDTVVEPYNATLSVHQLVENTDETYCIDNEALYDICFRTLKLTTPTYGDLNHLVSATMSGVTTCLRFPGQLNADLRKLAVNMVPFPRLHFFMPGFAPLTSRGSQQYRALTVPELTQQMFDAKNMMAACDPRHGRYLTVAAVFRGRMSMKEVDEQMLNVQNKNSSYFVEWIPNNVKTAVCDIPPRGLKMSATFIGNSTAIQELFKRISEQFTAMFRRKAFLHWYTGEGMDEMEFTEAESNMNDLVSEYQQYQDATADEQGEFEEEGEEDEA

The experiment addresses tubulin (purified brain tubulin) (Sus scrofa, UniProt P02550+P02554). Description: In vitro tubulin polymerization assay (fluorescence). Type of experiment: biochemical. Particulars: read-out: % Inhibition of Tubulin Polymerization. As for the experimental part: The α and β tubulin subunits are recognized by heterodimers and self-assemble into a stable microtubule in a time-dependent manner. Assessment of the inhibitory effect of new pyrazolic chalcone conjugates on tubulin polymerization was also carried out. The progression of tubulin polymerization was thus examined by monitoring the increase in the fluorescence intensity at 450 nm (excitation wavelength of 360 nm) in a 384-plate for 1 h at 37 °C with and without the conjugate at 10 µM concentration. CA-4 (6 µM) and Vincristine (3 µM) were used as the positive control, whereas paclitaxel (3 µM) was used as the negative control.
Tubulin polymerization is a dynamic process by enhancement of fluorescence intensity due to the combination of a fluorescent reporter into the microtubules as polymerization occurs. Tubulin polymerization was performed by using a purified brain tubulin polymerization kit purchased from Cytoskeleton (BK110P, Denver, CO, USA). The tubulin polymerization assay was monitored by the increase in fluorescence over a 60 min period at 37 °C, with excitation at 360 nm and emission at 450 nm. The final buffer concentration for tubulin polymerization contained 80 mM PIPES, pH 6.9; 2 mM MgCl2; 0.5 mM EGTA; […]; and 15% glycerol. Firstly, 5 µL of the test compounds (final concentration of 10 µM) was added and then warmed to 37 °C for 1 min. […]

As a reminder, the inhibition is the relative decrease from the control value, in per cent.

On to `COc1ccc(/C=C\c2cc(OC)c(OC)c(OC)c2)cc1O` [Combretastatin A-4, reference compound], for which the inhibition at 6 µM came out at 72.3%.
